Literature values as cited in EP3389676B1, “DOSAGE REGIMEN OF SODIUM SELENITE IN THE TREATMENT OF CANCER” (Pharma Nord ApS, priority 2015, dated 2017).

Test system: mice bearing a human carcinoma
Conditions: in combination with chemotherapeutic agents; Cao et al. 2004; cited from earlier work

## [Se] [selenium]
  safe and nontoxic dose and schedule: below 0.2 mg/mouse/day
